Experimental data published in PMC7575681 (EJNMMI Research, 2020).
Read-outs that look alike come from different tables or passages of the source. Marks after values point to notes of the source that are not given here.

^18F-deoxy-thiamine
biodistribution (ICR female mice, blood, 5 min): 3.87±0.51 IA%/g
biodistribution (ICR female mice, blood, 15 min): 1.59±0.42 IA%/g
biodistribution (ICR female mice, blood, 30 min): 0.89±0.12 IA%/g
biodistribution (ICR female mice, blood, 60 min): 0.52±0.05 IA%/g
biodistribution (ICR female mice, blood, 120 min): 0.39±0.07 IA%/g
biodistribution (ICR female mice, blood, 240 min): 0.16±0.01 IA%/g
biodistribution (ICR female mice, brain, 5 min): 1.62±0.35 IA%/g
biodistribution (ICR female mice, brain, 15 min): 1.18±0.29 IA%/g
biodistribution (ICR female mice, brain, 30 min): 0.97±0.24 IA%/g
biodistribution (ICR female mice, brain, 60 min): 0.72±0.06 IA%/g
biodistribution (ICR female mice, brain, 120 min): 0.52±0.06 IA%/g
biodistribution (ICR female mice, brain, 240 min): 0.14±0.01 IA%/g
biodistribution (ICR female mice, duodenum, 5 min, n=2): 23.89±14.71^a IA%/g
biodistribution (ICR female mice, duodenum, 15 min): 10.23±3.09 IA%/g
biodistribution (ICR female mice, duodenum, 30 min): 8.73±3.97 IA%/g
biodistribution (ICR female mice, duodenum, 60 min): 6.44±1.61 IA%/g
biodistribution (ICR female mice, duodenum, 120 min): 2.90±0.31 IA%/g
biodistribution (ICR female mice, duodenum, 240 min): 2.01±0.37 IA%/g
biodistribution (ICR female mice, fat, 5 min): 1.98±0.73 IA%/g
biodistribution (ICR female mice, fat, 15 min): 0.97±0.04 IA%/g
biodistribution (ICR female mice, fat, 30 min): 0.44±0.07 IA%/g
biodistribution (ICR female mice, fat, 60 min): 0.35±0.03 IA%/g
biodistribution (ICR female mice, fat, 120 min): 0.24±0.02 IA%/g
biodistribution (ICR female mice, fat, 240 min): 0.21±0.03 IA%/g
biodistribution (ICR female mice, fumur, 5 min): 4.49±1.07 IA%/g
biodistribution (ICR female mice, fumur, 15 min): 2.97±0.82 IA%/g
biodistribution (ICR female mice, fumur, 30 min): 2.68±0.80 IA%/g
biodistribution (ICR female mice, fumur, 60 min): 4.82±0.79 IA%/g
biodistribution (ICR female mice, fumur, 120 min): 2.16±0.37 IA%/g
biodistribution (ICR female mice, fumur, 240 min): 2.06±0.07 IA%/g
biodistribution (ICR female mice, heart, 5 min): 3.98±0.92 IA%/g
biodistribution (ICR female mice, heart, 15 min): 1.46±0.36 IA%/g
biodistribution (ICR female mice, heart, 30 min): 0.89±0.18 IA%/g
biodistribution (ICR female mice, heart, 60 min): 0.48±0.01 IA%/g
biodistribution (ICR female mice, heart, 120 min): 0.36±0.07 IA%/g
biodistribution (ICR female mice, heart, 240 min): 0.16±0.02 IA%/g
biodistribution (ICR female mice, kidney, 5 min, n=2): 42.35±2.82^a IA%/g
biodistribution (ICR female mice, kidney, 15 min): 8.47±1.56 IA%/g
biodistribution (ICR female mice, kidney, 30 min): 6.18±1.18 IA%/g
biodistribution (ICR female mice, kidney, 60 min): 2.09±0.24 IA%/g
biodistribution (ICR female mice, kidney, 120 min): 1.67±0.63 IA%/g
biodistribution (ICR female mice, kidney, 240 min): 0.50±0.22 IA%/g
biodistribution (ICR female mice, liver, 5 min, n=2): 17.60±6.41^a IA%/g
biodistribution (ICR female mice, liver, 15 min): 8.33±1.96 IA%/g
biodistribution (ICR female mice, liver, 30 min): 4.09±0.82 IA%/g
biodistribution (ICR female mice, liver, 60 min): 2.00±0.07 IA%/g
biodistribution (ICR female mice, liver, 120 min): 1.59±0.49 IA%/g
biodistribution (ICR female mice, liver, 240 min): 0.42±0.08 IA%/g
biodistribution (ICR female mice, lung, 5 min, n=2): 9.33±3.12^a IA%/g
biodistribution (ICR female mice, lung, 15 min): 3.34±0.93 IA%/g
biodistribution (ICR female mice, lung, 30 min): 2.76±0.33 IA%/g
biodistribution (ICR female mice, lung, 60 min): 1.89±0.10 IA%/g
biodistribution (ICR female mice, lung, 120 min): 1.31±0.39 IA%/g
biodistribution (ICR female mice, lung, 240 min): 0.58±0.09 IA%/g
biodistribution (ICR female mice, muscle, 5 min): 4.80±1.53 IA%/g
biodistribution (ICR female mice, muscle, 15 min): 1.92±0.28 IA%/g
biodistribution (ICR female mice, muscle, 30 min): 1.55±0.47 IA%/g
biodistribution (ICR female mice, muscle, 60 min): 1.43±0.22 IA%/g
biodistribution (ICR female mice, muscle, 120 min): 0.80±0.17 IA%/g
biodistribution (ICR female mice, muscle, 240 min): 0.71±0.28 IA%/g
biodistribution (ICR female mice, ovary, 5 min, n=2): 4.92±1.44^a IA%/g
biodistribution (ICR female mice, ovary, 15 min): 2.78±0.52 IA%/g
biodistribution (ICR female mice, ovary, 30 min): 2.88±1.26 IA%/g
biodistribution (ICR female mice, ovary, 60 min): 1.29±0.19 IA%/g
biodistribution (ICR female mice, ovary, 120 min): 0.84±0.28 IA%/g
biodistribution (ICR female mice, ovary, 240 min): 0.30±0.04 IA%/g
biodistribution (ICR female mice, pancreas, 5 min): 10.46±3.61 IA%/g
biodistribution (ICR female mice, pancreas, 15 min): 3.86±0.91 IA%/g
biodistribution (ICR female mice, pancreas, 30 min): 2.58±0.77 IA%/g
biodistribution (ICR female mice, pancreas, 60 min): 1.22±0.09 IA%/g
biodistribution (ICR female mice, pancreas, 120 min): 0.83±0.26 IA%/g
biodistribution (ICR female mice, pancreas, 240 min): 0.33±0.05 IA%/g
biodistribution (ICR female mice, spleen, 5 min): 4.90±2.28 IA%/g
biodistribution (ICR female mice, spleen, 15 min): 2.62±0.53 IA%/g
biodistribution (ICR female mice, spleen, 30 min): 2.08±0.51 IA%/g
biodistribution (ICR female mice, spleen, 60 min): 1.26±0.12 IA%/g
biodistribution (ICR female mice, spleen, 120 min): 0.56±0.30 IA%/g
biodistribution (ICR female mice, spleen, 240 min): 0.22±0.03 IA%/g
biodistribution (ICR female mice, stomach, 5 min): 7.68±2.27 IA%/g
biodistribution (ICR female mice, stomach, 15 min): 3.36±0.67 IA%/g
biodistribution (ICR female mice, stomach, 30 min): 2.24±0.43 IA%/g
biodistribution (ICR female mice, stomach, 60 min): 2.33±0.38 IA%/g
biodistribution (ICR female mice, stomach, 120 min): 1.37±0.10 IA%/g
biodistribution (ICR female mice, stomach, 240 min): 0.45±0.09 IA%/g
biodistribution (ICR male mice, blood, 5 min): 2.39±0.60 IA%/g
biodistribution (ICR male mice, blood, 15 min): 1.53±0.36 IA%/g
biodistribution (ICR male mice, blood, 30 min): 0.86±0.05 IA%/g
biodistribution (ICR male mice, blood, 60 min): 0.39±0.03 IA%/g
biodistribution (ICR male mice, blood, 120 min): 0.30±0.01 IA%/g
biodistribution (ICR male mice, blood, 240 min): 0.12±0.004 IA%/g
biodistribution (ICR male mice, brain, 5 min): 1.38±0.46 IA%/g
biodistribution (ICR male mice, brain, 15 min): 1.51±0.16 IA%/g
biodistribution (ICR male mice, brain, 30 min): 0.88±0.15 IA%/g
biodistribution (ICR male mice, brain, 60 min): 0.48±0.05 IA%/g
biodistribution (ICR male mice, brain, 120 min): 0.41±0.06 IA%/g
biodistribution (ICR male mice, brain, 240 min): 0.10±0.005 IA%/g
biodistribution (ICR male mice, duodenum, 5 min): 17.98±5.99 IA%/g
biodistribution (ICR male mice, duodenum, 15 min): 11.24±0.49 IA%/g
biodistribution (ICR male mice, duodenum, 30 min): 6.34±1.02 IA%/g
biodistribution (ICR male mice, duodenum, 60 min): 1.75±0.23 IA%/g
biodistribution (ICR male mice, duodenum, 120 min): 2.22±0.74 IA%/g
biodistribution (ICR male mice, duodenum, 240 min): 1.94±0.41 IA%/g
biodistribution (ICR male mice, fat, 5 min): 1.67±0.61 IA%/g
biodistribution (ICR male mice, fat, 15 min): 1.61±0.93 IA%/g
biodistribution (ICR male mice, fat, 30 min): 0.49±0.11 IA%/g
biodistribution (ICR male mice, fat, 60 min): 0.44±0.08 IA%/g
biodistribution (ICR male mice, fat, 120 min): 0.40±0.05 IA%/g
biodistribution (ICR male mice, fat, 240 min): 0.29±0.08 IA%/g
biodistribution (ICR male mice, fumur, 5 min): 5.60±2.73 IA%/g
biodistribution (ICR male mice, fumur, 15 min): 2.95±0.44 IA%/g
biodistribution (ICR male mice, fumur, 30 min): 3.15±0.16 IA%/g
biodistribution (ICR male mice, fumur, 60 min): 3.98±0.94 IA%/g
biodistribution (ICR male mice, fumur, 120 min): 3.03±0.07 IA%/g
biodistribution (ICR male mice, fumur, 240 min): 1.82±0.22 IA%/g
biodistribution (ICR male mice, heart, 5 min): 2.31±0.55 IA%/g
biodistribution (ICR male mice, heart, 15 min): 2.17±0.46 IA%/g
biodistribution (ICR male mice, heart, 30 min): 0.84±0.14 IA%/g
biodistribution (ICR male mice, heart, 60 min): 0.44±0.08 IA%/g
biodistribution (ICR male mice, heart, 120 min): 0.23±0.02 IA%/g
biodistribution (ICR male mice, heart, 240 min): 0.16±0.02 IA%/g
biodistribution (ICR male mice, kidney, 5 min, n=2): 12.61±2.42^a IA%/g
biodistribution (ICR male mice, kidney, 15 min): 10.94±2.26 IA%/g
biodistribution (ICR male mice, kidney, 30 min): 3.62±0.24 IA%/g
biodistribution (ICR male mice, kidney, 60 min): 1.13±0.20 IA%/g
biodistribution (ICR male mice, kidney, 120 min): 0.63±0.05 IA%/g
biodistribution (ICR male mice, kidney, 240 min): 0.19±0.03 IA%/g
biodistribution (ICR male mice, liver, 5 min): 13.86±4.17 IA%/g
biodistribution (ICR male mice, liver, 15 min): 8.24±0.60 IA%/g
biodistribution (ICR male mice, liver, 30 min): 2.58±0.31 IA%/g
biodistribution (ICR male mice, liver, 60 min): 1.06±0.10 IA%/g
biodistribution (ICR male mice, liver, 120 min): 0.97±0.06 IA%/g
biodistribution (ICR male mice, liver, 240 min): 0.32±0.02 IA%/g
biodistribution (ICR male mice, lung, 5 min, n=2): 3.96±0.79^a IA%/g
biodistribution (ICR male mice, lung, 15 min): 7.05±1.41 IA%/g
biodistribution (ICR male mice, lung, 30 min): 2.47±1.49 IA%/g
biodistribution (ICR male mice, lung, 60 min): 1.23±0.20 IA%/g
biodistribution (ICR male mice, lung, 120 min): 0.75±0.08 IA%/g
biodistribution (ICR male mice, lung, 240 min): 1.18±0.43 IA%/g
biodistribution (ICR male mice, muscle, 5 min): 1.43±0.12 IA%/g
biodistribution (ICR male mice, muscle, 15 min): 1.89±0.16 IA%/g
biodistribution (ICR male mice, muscle, 30 min): 1.68±0.42 IA%/g
biodistribution (ICR male mice, muscle, 60 min): 2.21±0.79 IA%/g
biodistribution (ICR male mice, muscle, 120 min): 0.82±0.08 IA%/g
biodistribution (ICR male mice, muscle, 240 min): 0.47±0.10 IA%/g
biodistribution (ICR male mice, pancreas, 5 min): 6.92±2.62 IA%/g
biodistribution (ICR male mice, pancreas, 15 min): 5.55±0.48 IA%/g
biodistribution (ICR male mice, pancreas, 30 min): 1.93±0.46 IA%/g
biodistribution (ICR male mice, pancreas, 60 min): 0.66±0.06 IA%/g
biodistribution (ICR male mice, pancreas, 120 min): 0.47±0.03 IA%/g
biodistribution (ICR male mice, pancreas, 240 min): 0.44±0.12 IA%/g
biodistribution (ICR male mice, spleen, 5 min): 2.40±0.56 IA%/g
biodistribution (ICR male mice, spleen, 15 min): 3.52±0.43 IA%/g
biodistribution (ICR male mice, spleen, 30 min): 1.44±0.23 IA%/g
biodistribution (ICR male mice, spleen, 60 min): 0.66±0.10 IA%/g
biodistribution (ICR male mice, spleen, 120 min): 0.47±0.05 IA%/g
biodistribution (ICR male mice, spleen, 240 min): 0.24±0.02 IA%/g
biodistribution (ICR male mice, stomach, 5 min): 5.48±2.05 IA%/g
biodistribution (ICR male mice, stomach, 15 min): 6.68±1.47 IA%/g
biodistribution (ICR male mice, stomach, 30 min): 2.78±0.87 IA%/g
biodistribution (ICR male mice, stomach, 60 min): 1.52±0.23 IA%/g
biodistribution (ICR male mice, stomach, 120 min): 1.35±0.33 IA%/g
biodistribution (ICR male mice, stomach, 240 min): 0.97±0.12 IA%/g
biodistribution (ICR male mice, testicle, 5 min): 1.23±0.31 IA%/g
biodistribution (ICR male mice, testicle, 15 min): 1.24±0.13 IA%/g
biodistribution (ICR male mice, testicle, 30 min): 0.87±0.05 IA%/g
biodistribution (ICR male mice, testicle, 60 min): 0.32±0.08 IA%/g
biodistribution (ICR male mice, testicle, 120 min): 0.58±0.07 IA%/g
biodistribution (ICR male mice, testicle, 240 min): 0.23±0.01 IA%/g
